# Reference: patent US20220267441A1 (VOR BIOPHARMA, published 2022)
# T1: purified human CD45 ectodomain (human CD45RABC antigen) (human, UniProt P08575 26-577)
# T1 construct: also called hCD45
# T1 sequence: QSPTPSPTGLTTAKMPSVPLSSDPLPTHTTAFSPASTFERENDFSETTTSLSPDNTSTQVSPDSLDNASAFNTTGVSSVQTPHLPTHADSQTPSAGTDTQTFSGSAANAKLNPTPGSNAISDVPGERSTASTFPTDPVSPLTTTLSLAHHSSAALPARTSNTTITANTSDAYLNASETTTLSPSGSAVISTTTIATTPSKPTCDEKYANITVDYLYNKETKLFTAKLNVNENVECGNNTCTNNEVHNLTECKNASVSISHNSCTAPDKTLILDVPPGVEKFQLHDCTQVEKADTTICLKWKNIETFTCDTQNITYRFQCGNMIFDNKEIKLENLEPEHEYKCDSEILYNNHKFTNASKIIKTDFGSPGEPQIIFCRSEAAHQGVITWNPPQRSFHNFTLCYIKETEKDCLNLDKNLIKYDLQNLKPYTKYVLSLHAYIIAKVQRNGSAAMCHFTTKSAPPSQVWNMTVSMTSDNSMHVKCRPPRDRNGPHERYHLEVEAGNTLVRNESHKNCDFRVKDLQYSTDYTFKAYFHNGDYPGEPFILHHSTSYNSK
# Target: T1, purified human CD45 ectodomain (human …)
# Assay: BLI (Octet Red96), IgG on anti-human Fc sensor, 100 nM CD45 ectodomain, 1:1 fit
binder,measurement,value
"Antibody 1 (Ab1) (antibody, V domains shown, Fully human IgG from yeast display; also called Parent 1; parent clone Ab1) VH: QVQLVESGGGLVKPGGSLRLSCAASGFTFSSYSMNWVRQAPGKGLEWVSYISSSSSTIYYADSVKGRFTISRDNAKNSLYLQMNSLRAEDTAVYYCARGGQYYYDSSRYGEVAFDIWGQGTMVTVSS VL: not shown",Kd,0.109 µM
